# A549 viability: A549 cytotoxicity, counter-screen for Nrf2 inhibitors | actives 0.16% (n = 390,000) | A549 ARE-Fluc cells, CellTiter-Fluor viability, 18-24 h | Potency, µM (highest dose often 46 µM), without a hit: at the highest dose activity change, negative = cytotoxicity, most hits filed as inhibitors; further: potency means the concentration at half of the fitted maximal effect; on the % scale 0 is the no-effect control and ±100 the full control effect
#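 Cytotoxicity counterscreen: CellTiter-Fluor fluorescence was measured in A549 ARE_Fluc cells after 18-24 h of compound exposure in a concentration series. The subsequent BugLite luminescent read reports ARE-luciferase activity.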
# Nrf2 inh: blocks Nrf2 signaling. Potency, µM (highest dose often 46 µM), without a hit: at the highest dose activity change, negative = inhibition, actives largely listed as inhibitors. A549 ARE-Fluc reporter, luciferase luminescence, 18-24 h. actives 2.1% (n = 360,000); further: potency means the concentration at half of the fitted maximal effect; on the % scale 0 is the no-effect control and ±100 the full control effect; nearly all actives have a fitted effect of over 60% in size
#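 A549 ARE_Fluc cells (5000/well, 5% FBS OPTI-MEM) pre-incubated 2 h, then treated with compounds 18-24 h at 37C/5% CO2 in concentration-response. CellTiter-Fluor viability read first; BugLite luciferase luminescence after 15 min at room temperature gives Nrf2 activity.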
# GALK inhibitor: galactokinase (human) inhibition. P51570. Purified GALK, Kinase-Glo residual ATP luminescence. Potency, µM (titrated, usually from 57.5 µM), inactives show at the highest dose activity change, negative = inhibition, usual class: inhibitors. actives 0.007% (n = 270,000); further: potency means the concentration at half of the fitted maximal effect; on the % scale 0 is the no-effect control and ±100 the full control effect
#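 Galactose (100 uM) and ATP (35 uM) were turned over by 5 nM GALK for 1 h at RT. Kinase-Glo Plus then converted the remaining ATP into a luminescent signal.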
# Nrf2 ARE act: Nrf2 pathway activation | AREc32 ARE-luciferase reporter (MCF7-derived line), luminescence, 24 h | Potency, µM (series often up to 46.1 µM), for inactives: top-dose activation, most hits filed as activators | actives 0.31% (n = 410,000) | AID 624171; further: potency means the concentration at half of the fitted maximal effect; % of control where 0% means no effect; nearly all actives have a fitted effect of over 65% in size
#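 Steps: seed AREc32_Fluc cells (1000/well, 5% FBS OPTI-MEM); incubate overnight at 37 deg C; add 23 nL compound; incubate 24 hr; add Steady-Glo; hold 30 min RT; read luminescence.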
# miR-21 FLuc: miR-21 reporter, rising signal | 340,000 tested, under 10 active | AID 2288 | HeLa miR-21 FLuc reporter, luciferase, 48 h | Potency, µM (titrated, usually from 38.3 µM), for inactives: at the highest dose reporter change, positive = more light; active = well fitted rising curve with a large enough effect; inconclusive = small, poorly fitted or top-dose-only effect; inactive = no such curve, though single readings can be large or run the other way;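 further: % of control where 0% means no effect; miR-21 action dims this reporter so a rising signal means less miR-21 action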
#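 Using DMEM plus 10% FBS, HeLa miR-21-FLuc cells are incubated with test compounds (final up to about 40uM) for 48 hours; firefly luciferase signal is then imaged following reagent-mediated lysis.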
# PI4K2A inh: PI4K2A (human) kinase inhibition; AID 1346378; purified PI4K2A, ADP-Glo luminescence, 1 h; active compounds read low; Q9BTU6; actives 0.13% (n = 420,000); activity change, negative = inhibition, % at 76.9 µM; in the data active means activity change below about -50%; inconclusive means mostly about -30% to -49%;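 further: -100% = wells without enzyme as full effect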
#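 In this quantitative HTS, ADP production by PI4K2A was quantified luminescently after 1 h at ambient temperature; 100 microM adenosine served as plate-quality control.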
# An asterisk follows results filed as active; ? = inconclusive; nt = no result given. Only some compounds are listed: those with a hit (about 2.2% of all), similar ones and a draw of the others. Unless noted, the call rests on the fitted dose curve; in most records, active means well fitted curve in the direction sought with a large enough effect; inconclusive means small, poorly fitted or top-dose-only effect, or another doubt; inactive means no such curve, though single readings can be large; an effect the other way counts as inactive or inconclusive.
[1] COc1ccc(Nc2nc(-c3c(C)nc4ncccn34)cs2)cc1
[2] COc1ccccc1Nc1nc(-c2c(C)nc3ncccn23)cs1
[3] Cc1cc(C)cc(Cn2ncc3c4sc(C)cc4n(C)c3c2=O)c1
[4] Cc1ccc2c(c1)nnn2C1CCN(S(=O)(=O)c2ccc(C(=O)O)cc2)CC1
[5] Cc1ccc2c(c1)nnn2C1CCN(S(=O)(=O)c2ccc(C(=O)N3C(C)CCCC3C)cc2)CC1 (stereo unspecified)

assay / compound	1	2	3	4	5
A549 viability	-21.0%	?	-11.5%	-0.7%	?
Nrf2 inh	?	11.6µM*	4.2%	15.2%	10.3µM*
GALK inhibitor	9.4%	0.1%	nt	3.5%	-3.5%
Nrf2 ARE act	10.0%	7.5%	nt	-0.1%	6.5%
miR-21 FLuc	18.3%	14.0%	nt	-3.0%	25.8%
PI4K2A inh	2.1	0.4	nt	-0.7	-5.4

# Part of the list above, showing only miR-21 FLuc, GALK inhibitor and PI4K2A inh.
no.	Structure	miR-21 FLuc	GALK inhibitor	PI4K2A inh
1	COc1ccc(Nc2nc(-c3c(C)nc4ncccn34)cs2)cc1	18.3%	9.4%	2.1
2	COc1ccccc1Nc1nc(-c2c(C)nc3ncccn23)cs1	14.0%	0.1%	0.4

# From compound 1 up to 2, copied from above:
[1] COc1ccc(Nc2nc(-c3c(C)nc4ncccn34)cs2)cc1
[2] COc1ccccc1Nc1nc(-c2c(C)nc3ncccn23)cs1

assay / compound	1	2
A549 viability	-21.0%	?
Nrf2 inh	?	11.6µM*
GALK inhibitor	9.4%	0.1%
Nrf2 ARE act	10.0%	7.5%
miR-21 FLuc	18.3%	14.0%
PI4K2A inh	2.1	0.4

# Further records follow:
[6] Cc1ccc2cc(CCNS(=O)(=O)c3ccc(Br)cc3)c(=O)[nH]c2c1C
[7] Cc1cc(C)c(S(=O)(=O)NCCc2cc3ccc(C)c(C)c3[nH]c2=O)c(C)c1
[8] Cc1cccc2sc(NC(=O)C3CC3)nc12
[9] Cc1cccc2sc(NC(=O)c3ccc(Cl)s3)nc12
[10] Cc1cccc2sc(NC(=O)C3c4ccccc4Oc4ccccc43)nc12

assay / compound	6	7	8	9	10
A549 viability	-22.6%	-5.0%	-0.6%	7.1%	-11.1%
Nrf2 inh	23.1µM*	?	?	20.1%	20.6µM*
GALK inhibitor	4.8%	-2.0%	0.1%	0.8%	-2.4%
Nrf2 ARE act	1.9%	-1.2%	?	7.08µM*	-0.2%
miR-21 FLuc	10.0%	3.2%	-26.7%	-10.9%	0.2%
PI4K2A inh	-3.8	7.1	-1.9	1.0	-1.5

[11] O=C(c1ccoc1)N1CCN(c2cc(-c3ccco3)nc3cc(-c4ccco4)nn23)CC1
[12] COc1cc(CN(C(=O)c2ccc(OC(C)C)cc2)c2ccccn2)cc(OC)c1OC
[13] COc1ccc(C(=O)N(Cc2cc(OC)c(OC)c(OC)c2)c2ccccn2)cc1
[14] Cc1cccc(C)c1NC(=O)c1cc(S(N)(=O)=O)c(Cl)cc1O
[15] NNC(=O)COc1ccccc1[N+](=O)[O-]

assay / compound	11	12	13	14	15
A549 viability	nt	-4.5%	-2.0%	nt	1.9%
Nrf2 inh	nt	5.17µM*	?	nt	11.9%
GALK inhibitor	nt	nt	nt	nt	4.4%
Nrf2 ARE act	nt	4.1%	0.7%	nt	0.4%
miR-21 FLuc	nt	?	-1.5%	nt	-28.6%
PI4K2A inh	-20.4	1.4	-7.0	0.0	-2.4

# Additional entries
# Fields: A549 viability	Nrf2 inh	GALK inhibitor	Nrf2 ARE act	miR-21 FLuc	PI4K2A inh
[16] O=C(COc1cccnc1[N+](=O)[O-])N1CCC(Cc2ccccc2)CC1
    1.7%	14.6µM*	nt	2.7%	nt	-7.5
[17] O=C(COc1ccccc1[N+](=O)[O-])NNC(=O)Nc1cccc2ccccc12
    -4.1%	?	-0.3%	14.1µM*	-15.6%	-1.0
[18] O=C(COc1cccnc1[N+](=O)[O-])Nc1cccc2ccccc12
    -4.3%	-11.2%	nt	5.62µM*	nt	-2.0
[19] O=C(COc1cccnc1[N+](=O)[O-])Nc1c(Cl)cccc1Cl
    3.0%	-28.9%	nt	1.0%	nt	-0.2
[20] Nc1[nH]c2cc(Cl)ccc2c1C(=O)N1CCOCC1
    nt	nt	nt	nt	nt	-9.7
[21] CCn1cnc2c(Nc3ccc(CCC(=O)N=C(N)N)cc3)nc(C#N)nc21
    -5.4%	9.0%	nt	nt	nt	nt
[22] Oc1ccc(/C=N/Nc2ncnc3nc[nH]c23)cc1
    16.3%	12.3%	7.8%	0.4%	-41.9%	-52.3*
[23] Clc1ccc(/C=N/Nc2ncnc3nc[nH]c23)cc1
    8.5%	1.2%	-4.2%	11.8%	-101.3%	-11.1
[24] CCOc1ccccc1-c1nnc2n1N=C(c1cc(OC)ccc1OC)CS2
    1.8%	-7.7%	nt	nt	nt	nt
[25] CCNC(=O)c1c(NC(=O)c2nc(S(=O)(=O)CC)ncc2Cl)sc2c1CCCC2
    20.6µM*	20.6µM*	nt	12.8%	?	-6.6
[26] CCS(=O)(=O)c1ncc(Cl)c(C(=O)NCc2ccccc2)n1
    ?	18.4µM*	nt	-6.1%	?	10.0
[27] Cc1nc(Cl)c(C(=O)NCc2ccccc2)c(C)c1Cl
    8.4%	?	4.2%	2.3%	-4.9%	0.3
[28] COc1ccc(CNC(=O)c2nc(S(=O)(=O)Cc3ccccc3)ncc2Cl)cc1
    ?	18.4µM*	-8.4%	-3.9%	?	-1.6
[29] O=C(NCc1ccccc1)c1c(Cl)nc(Cl)c(Cl)c1Cl
    1.3%	-20.7%	-2.6%	10µM*	23.5%	-14.5
